Where two headings read alike, the source gives them in different places.
Legend:
[1] = target: T1, hFASN enzyme (full length) (Homo sapiens, UniProt P49327); assay: Fatty Acid Synthase (FASN) inhibition scintillation proximity assay; type: biochemical
T1 construct: 10 μL hFASN enzyme (full length, 300 ng, purified in house); made in house
Method: In this assay, inhibition of FASN activity is measured using ^3H-acetyl-CoA and malonyl-CoA as substrates. ^3H-Acetyl CoA is converted to ^3H-palmitate through a series of reactions by the FASN protein, which contains 7 functional domains and carries out 7 enzymatic reactions to ultimately produce ^3H-palmitate. The assay principle is based upon the fact that ^3H-acetyl-CoA is hydrophilic and the end product, ^3H-palmitate is hydrophobic.
10 μL assay buffer (100 mM KH2PO4 pH 7.5, 1 mM DTT) (20 μL in blanks) was added to a 384-well white optiplate plate (Perkin Elmer). 0.9 μL test compound (at concentrations of 30 μM, 10 μM, 3 μM, 1 μM, 0.30 μM, 0.10 μM, 0.03 μM and 0.01 μM)/DMSO and 10 μL hFASN enzyme (full length, 300 ng, purified in house) or 10 μL assay buffer was added to the wells. […] The reaction was stopped by adding 20 μL Streptavidin coupled imaging beads (25 mg/ml). After incubation for 30 minutes at room temperature in the dark, the 384 well plate was centrifuged at 1500 rpm for 3 minutes and was measured after at least 24 hrs by the LEADseeker™, measuring emission using a 610±20 nm pass filter.
where mLC and mHC were the means of the low control wells and high control wells on the plate, after manual exclusion of outliers. A plot of Controlmin versus test compound concentration was fitted to a 4-parameter logistic curve using a non-linear least squares regression method.

Chains of the proteins cited; added tags and fusions are not shown.
UniProt P49327, whole entry: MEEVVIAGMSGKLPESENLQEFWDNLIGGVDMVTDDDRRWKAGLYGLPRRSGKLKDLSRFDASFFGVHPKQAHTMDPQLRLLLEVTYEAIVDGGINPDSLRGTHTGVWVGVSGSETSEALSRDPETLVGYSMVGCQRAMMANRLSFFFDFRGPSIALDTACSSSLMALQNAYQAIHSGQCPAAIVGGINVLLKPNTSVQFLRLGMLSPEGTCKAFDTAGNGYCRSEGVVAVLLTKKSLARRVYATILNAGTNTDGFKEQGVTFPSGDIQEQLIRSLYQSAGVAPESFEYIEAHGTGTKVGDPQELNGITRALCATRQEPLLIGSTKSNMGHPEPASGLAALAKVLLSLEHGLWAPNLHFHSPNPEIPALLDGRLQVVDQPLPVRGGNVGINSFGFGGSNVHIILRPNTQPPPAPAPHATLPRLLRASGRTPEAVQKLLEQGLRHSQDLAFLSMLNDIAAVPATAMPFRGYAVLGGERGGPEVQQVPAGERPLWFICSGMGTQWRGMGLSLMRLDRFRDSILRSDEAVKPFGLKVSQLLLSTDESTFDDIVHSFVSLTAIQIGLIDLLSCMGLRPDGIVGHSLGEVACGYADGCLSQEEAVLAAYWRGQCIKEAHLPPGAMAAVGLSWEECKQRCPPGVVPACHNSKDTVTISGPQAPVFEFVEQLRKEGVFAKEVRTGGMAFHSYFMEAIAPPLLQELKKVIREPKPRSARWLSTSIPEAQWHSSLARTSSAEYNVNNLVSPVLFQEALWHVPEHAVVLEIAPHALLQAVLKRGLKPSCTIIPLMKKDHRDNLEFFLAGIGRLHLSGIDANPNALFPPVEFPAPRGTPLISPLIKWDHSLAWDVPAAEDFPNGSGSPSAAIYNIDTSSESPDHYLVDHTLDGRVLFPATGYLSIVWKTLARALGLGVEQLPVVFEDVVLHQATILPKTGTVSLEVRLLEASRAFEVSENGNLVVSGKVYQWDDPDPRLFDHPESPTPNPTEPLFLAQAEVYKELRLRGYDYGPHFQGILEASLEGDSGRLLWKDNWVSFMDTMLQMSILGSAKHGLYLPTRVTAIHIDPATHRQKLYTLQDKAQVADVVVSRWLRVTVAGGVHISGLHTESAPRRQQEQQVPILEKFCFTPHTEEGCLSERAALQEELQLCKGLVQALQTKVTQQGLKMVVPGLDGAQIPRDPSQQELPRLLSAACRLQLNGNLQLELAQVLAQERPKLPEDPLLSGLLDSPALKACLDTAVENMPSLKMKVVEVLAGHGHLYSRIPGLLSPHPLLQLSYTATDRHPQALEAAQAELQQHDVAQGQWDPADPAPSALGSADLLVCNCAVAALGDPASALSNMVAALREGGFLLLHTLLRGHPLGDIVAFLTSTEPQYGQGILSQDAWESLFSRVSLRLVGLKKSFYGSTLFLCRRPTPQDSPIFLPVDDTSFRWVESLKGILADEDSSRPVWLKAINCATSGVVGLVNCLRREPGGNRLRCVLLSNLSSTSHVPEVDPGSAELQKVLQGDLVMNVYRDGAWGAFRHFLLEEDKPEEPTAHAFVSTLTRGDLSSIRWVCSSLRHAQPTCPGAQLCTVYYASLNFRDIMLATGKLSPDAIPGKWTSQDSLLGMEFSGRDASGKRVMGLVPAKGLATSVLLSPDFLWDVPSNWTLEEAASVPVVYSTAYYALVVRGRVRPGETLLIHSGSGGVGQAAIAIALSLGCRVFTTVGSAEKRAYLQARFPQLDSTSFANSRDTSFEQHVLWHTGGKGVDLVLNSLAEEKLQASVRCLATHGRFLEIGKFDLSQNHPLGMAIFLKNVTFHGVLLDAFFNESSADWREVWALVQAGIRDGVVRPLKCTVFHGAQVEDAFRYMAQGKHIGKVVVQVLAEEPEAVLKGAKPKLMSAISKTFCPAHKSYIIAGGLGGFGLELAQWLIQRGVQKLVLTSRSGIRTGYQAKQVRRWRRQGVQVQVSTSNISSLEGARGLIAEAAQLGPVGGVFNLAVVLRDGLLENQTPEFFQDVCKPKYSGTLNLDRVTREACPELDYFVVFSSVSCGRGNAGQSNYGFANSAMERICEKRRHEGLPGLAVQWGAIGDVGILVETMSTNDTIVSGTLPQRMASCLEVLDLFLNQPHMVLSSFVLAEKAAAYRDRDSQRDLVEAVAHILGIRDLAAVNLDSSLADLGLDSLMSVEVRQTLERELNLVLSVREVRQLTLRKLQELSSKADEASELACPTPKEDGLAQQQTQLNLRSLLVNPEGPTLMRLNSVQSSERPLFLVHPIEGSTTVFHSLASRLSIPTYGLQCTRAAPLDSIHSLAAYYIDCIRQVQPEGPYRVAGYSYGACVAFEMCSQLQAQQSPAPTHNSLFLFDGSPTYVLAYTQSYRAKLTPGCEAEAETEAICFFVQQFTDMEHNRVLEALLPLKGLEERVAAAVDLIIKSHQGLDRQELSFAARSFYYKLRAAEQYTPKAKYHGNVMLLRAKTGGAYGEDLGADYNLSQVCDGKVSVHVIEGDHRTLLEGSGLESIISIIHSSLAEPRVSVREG

[2] = target: Fatty Acid Synthase Keto-reductase Domain (FASN KR) (Homo sapiens, UniProt P49327); assay: Fatty Acid Synthase keto-reductase domain (FASN KR) inhibition, NADPH oxidation at 340 nm
[3] = read-out: Human FASN pIC50 (converted)
[4] = read-out: Human FASN % inhibition @ 10 μM, 10 μM test compound

N#Cc1ccc(-c2ccc(C3=NC4(CC4)C(=O)N3CC3CCN(C(=O)C4CC4)CC3)cc2)cc1 [compound 7, 4′-(6-{[1-(Cyclopropylcarbonyl)piperidin-4-yl]methyl}-7-oxo-4,6-diazaspiro[2.4]hept-4-en-5-yl)biphenyl-4-carbonitrile]
IC50 [1, 3]: > 10000 nM

Cn1ncc2cc(-c3ccc(C4=NC5(CC5)C(=O)N4CC4CN(C(=O)C5CC5)C4)cc3)ccc21 [compound 39, 6-{[1-(Cyclopropylcarbonyl)azetidin-3-yl]methyl}-5-[4-(1-methyl-1H-indazol-5-yl)phenyl]-4,6-diazaspiro[2.4]hept-4-en-7-one]
IC50 [2]: 214 nM
inhibition at 10 µM [1, 4]: 103%
IC50 [1, 3]: 64.6 nM

O=C(C1CC1)N1CC[C@@H](CN2C(=O)C3(CC3)N=C2c2ccc(-c3ccc4cnccc4c3)cc2)C1 [compound 47, 6-{[(3R)-1-(Cyclopropylcarbonyl)pyrrolidin-3-yl]methyl}-5-(4-isoquinolin-6-ylphenyl)-4,6-diazaspiro[2.4]hept-4-en-7-one]
IC50 [2]: 27.5 nM
IC50 [1]: 20.4 nM
inhibition at 10 µM [1, 4]: 103%

O=C(C1CC1)N1CC[C@@H](CN2C(=O)C3(CC3)N=C2c2ccc(-c3ccc4occc4c3)cc2)C1 [compound 58, (R)-5-(4-(Benzofuran-5-yl)phenyl)-6-((1-(cyclopropanecarbonyl)pyrrolidin-3-yl)methyl)-4,6-diazaspiro[2.4]hept-4-en-7-one]
IC50 [2]: 52.5 nM
inhibition at 10 µM ([1]; read-out: Human FASN % inhibition @ 10 μM): 108%
IC50 [1, 3]: 25.1 nM

O=C(C1CC1)N1CC(CN2C(=O)C3(CCCC3)N=C2c2ccc(-c3ccc4[nH]ccc4c3)cc2)C1 [compound 78, 3-{[1-(Cyclopropylcarbonyl)azetidin-3-yl]methyl}-2-[4-(1H-indol-5-yl)phenyl]-1,3-diazaspiro[4.4]non-1-en-4-one]
IC50 [2]: 224 nM
IC50 [1, 3]: 58.9 nM

CC(=O)N1CCC2(CC1)N=C(c1ccc(-c3ccc4c(cnn4C)c3)cc1)N(C[C@@H]1CCN(C(=O)C3CC3)C1)C2=O [compound 138, 8-Acetyl-3-{[(3R)-1-(cyclopropylcarbonyl)pyrrolidin-3-yl]methyl}-2-[4-(1-methyl-1H-indazol-5-yl)phenyl]-1,3,8-triazaspiro[4.5]dec-1-en-4-one]
inhibition at 10 µM [1, 4]: 102%
IC50 [1, 3]: 389 nM

Cc1cc(C2=NC3(CC3)C(=O)N2C[C@@H]2CCN(C(=O)C3CC3)C2)ccc1-c1ccc2cc[nH]c2c1 [compound 239, (R)-5-(4-(1H-indol-6-yl)-3-methylphenyl)-6-((1-(cyclopropanecarbonyl)pyrrolidin-3-yl)methyl)-4,6-diazaspiro[2.4]hept-4-en-7-one]
IC50 [2]: 129 nM
IC50 [1, 3]: 58.9 nM

Cc1cc(-c2ccc3c(cnn3C)c2)ccc1C1=NC2(CC2)C(=O)N1C[C@@H]1CCN(C(=O)C2CC2)C1 [compound 262, (R)-6-((1-(cyclopropanecarbonyl)pyrrolidin-3-yl)methyl)-5-(2-methyl-4-(1-methyl-1H-indazol-5-yl)phenyl)-4,6-diazaspiro[2.4]hept-4-en-7-one]
IC50 [2]: 72.4 nM
IC50 [1]: ~51.3 nM
inhibition at 10 µM [1, 4]: 94%

O=C(C1CC1)N1CC[C@@H](CN2C(=O)C3(CC3)N=C2c2ccc(-c3ccc4[nH]ncc4c3)cc2)C1 [compound 297, (R)-5-(4-(1H-indazol-5-yl)phenyl)-6-((1-(cyclopropanecarbonyl)pyrrolidin-3-yl)methyl)-4,6-diazaspiro[2.4]hept-4-en-7-one]
IC50 [2]: 61.7 nM
IC50 [1]: 31.6 nM
inhibition at 10 µM [1, 4]: 111%

O=C(C1CC1)N1CC(CN2C(=O)C3(CC3)N=C2c2ccc(-c3ccc4ccccc4n3)cc2)C1 [compound 345, 6-((1-(cyclopropanecarbonyl)azetidin-3-yl)methyl)-5-(4-(quinolin-2-yl)phenyl)-4,6-diazaspiro[2.4]hept-4-en-7-one]
IC50 [2]: 229 nM
IC50 [1, 3]: 89.1 nM

Cn1ncc2cc(-c3ccc(C4=NC5(CC5)C(=O)N4C[C@@H]4CCCN(C(=O)C5CC5)C4)cc3)ccc21 [compound 396, 6-{[(3R)-1-(Cyclopropylcarbonyl)piperidin-3-yl]methyl}-5-[4-(1-methyl-1H-indazol-5-yl)phenyl]-4,6-diazaspiro[2.4]hept-4-en-7-one]
IC50 [1]: ~8510 nM
inhibition at 10 µM [1, 4]: 52%

Cn1ncc2cc(-c3ccc(C4=NC5(CC5)C(=O)N4C[C@@H]4CCN(C(=O)C5CC5)C4)cc3F)ccc21 [compound 405, 6-{[(3R)-1-(Cyclopropylcarbonyl)pyrrolidin-3-yl]methyl}-5-[3-fluoro-4-(1-methyl-1H-indazol-5-yl)phenyl]-4,6-diazaspiro[2.4]hept-4-en-7-one]
inhibition at 10 µM [1, 4]: 102%

O=C(C1CC1)N1CC[C@H](CN2C(=O)C3(CC3)N=C2c2ccc(-c3ccc4occc4c3)cc2)C1 [compound 409, 5-[4-(1-Benzofuran-5-yl)phenyl]-6-{[(3S)-1-(cyclopropylcarbonyl)pyrrolidin-3-yl]methyl}-4,6-diazaspiro[2.4]hept-4-en-7-one]
IC50 [2]: 347 nM
inhibition at 10 µM [1, 4]: 100%
IC50 [1, 3]: 174 nM

O=C(C1CC1)N1CC[C@H](CN2C(=O)C3(CC3)N=C2c2ccc(-c3ccc4[nH]ncc4c3)cc2)C1 [compound 431, 6-{[(3S)-1-(Cyclopropylcarbonyl)pyrrolidin-3-yl]methyl}-5-[4-(1H-indazol-5-yl)phenyl]-4,6-diazaspiro[2.4]hept-4-en-7-one]
IC50 [2]: 468 nM
inhibition at 10 µM [1, 4]: 97%
IC50 [1, 3]: 316 nM

Cc1cc(C2=NC3(CC3)C(=O)N2C[C@@H]2CCN(C(=O)C3CC3)C2)ccc1-c1ccc2c(cnn2C)c1 [compound 450, 6-{[(3R)-1-(Cyclopropylcarbonyl)pyrrolidin-3-yl]methyl}-5-[3-methyl-4-(1-methyl-1H-indazol-5-yl)phenyl]-4,6-diazaspiro[2.4]hept-4-en-7-one]
IC50 [2]: 646 nM
IC50 [1]: 295 nM
inhibition at 10 µM [1, 4]: 98%

O=C(C1CC1)N1CC[C@@H](CN2C(=O)C3(CC3)N=C2c2ccc(-c3ccc4ncccc4c3)cc2)C1 [compound 455, 6-{[(3R)-1-(Cyclopropylcarbonyl)pyrrolidin-3-yl]methyl}-5-(4-quinolin-6-ylphenyl)-4,6-diazaspiro[2.4]hept-4-en-7-one]
IC50 [2]: 355 nM
IC50 [1]: 162 nM
inhibition at 10 µM [1, 4]: 99%

O=C(C1CC1)N1CC[C@@H](CN2C(=O)C3(CC3)N=C2c2ccc(-c3cnc4ccccc4c3)cc2)C1 [compound 474, 6-{[(3R)-1-(Cyclopropylcarbonyl)pyrrolidin-3-yl]methyl}-5-(4-quinolin-3-ylphenyl)-4,6-diazaspiro[2.4]hept-4-en-7-one]
IC50 [2]: 182 nM
IC50 [1]: 123 nM
inhibition at 10 µM [1, 4]: 99%

Cn1ncc2cc(-c3ccc(C4=NC5(CC5)C(=O)N4C[C@H]4CCCN(C(=O)C5CC5)C4)cc3)ccc21 [compound 819, (S)-6-((1-(cyclopropanecarbonyl)piperidin-3-yl)methyl)-5-(4-(1-methyl-1H-indazol-5-yl)phenyl)-4,6-diazaspiro[2.4]hept-4-en-7-one]
IC50 [1, 3]: > 10000 nM

Cn1ncc2cc(-c3ccc(C4=NC5(CC5)C(=O)N4C[C@@H]4CCN(C(=O)C5CC5)C4)c(F)c3)ccc21 [compound 871, (R)-6-((1-(cyclopropanecarbonyl)pyrrolidin-3-yl)methyl)-5-(2-fluoro-4-(1-methyl-1H-indazol-5-yl)phenyl)-4,6-diazaspiro[2.4]hept-4-en-7-one]
IC50 [1]: 22.4 nM

Cc1cc(-c2ccc3cc[nH]c3c2)ccc1C1=NC2(CCCC2)C(=O)N1C[C@@H]1CCN(C(=O)C2CC2)C1 [compound 873, (R)-2-(4-(1H-indol-6-yl)-2-methylphenyl)-3-((1-(cyclopropanecarbonyl)pyrrolidin-3-yl)methyl)-1,3-diazaspiro[4.4]non-1-en-4-one]
IC50 [2]: 40.7 nM
IC50 [1, 3]: 24.5 nM

Reference: patent US10077261B2, “Imidazolin-5-one derivative useful as FASN inhibitors for the treatment of cancer” (Janssen Pharmaceutica NV, priority 2012, dated 2018)
